Measurements: paper PMC2914574 (Journal of neurochemistry, 2010)

Chains of the proteins cited; added tags and fusions are not shown.
UniProt Q01959, whole entry: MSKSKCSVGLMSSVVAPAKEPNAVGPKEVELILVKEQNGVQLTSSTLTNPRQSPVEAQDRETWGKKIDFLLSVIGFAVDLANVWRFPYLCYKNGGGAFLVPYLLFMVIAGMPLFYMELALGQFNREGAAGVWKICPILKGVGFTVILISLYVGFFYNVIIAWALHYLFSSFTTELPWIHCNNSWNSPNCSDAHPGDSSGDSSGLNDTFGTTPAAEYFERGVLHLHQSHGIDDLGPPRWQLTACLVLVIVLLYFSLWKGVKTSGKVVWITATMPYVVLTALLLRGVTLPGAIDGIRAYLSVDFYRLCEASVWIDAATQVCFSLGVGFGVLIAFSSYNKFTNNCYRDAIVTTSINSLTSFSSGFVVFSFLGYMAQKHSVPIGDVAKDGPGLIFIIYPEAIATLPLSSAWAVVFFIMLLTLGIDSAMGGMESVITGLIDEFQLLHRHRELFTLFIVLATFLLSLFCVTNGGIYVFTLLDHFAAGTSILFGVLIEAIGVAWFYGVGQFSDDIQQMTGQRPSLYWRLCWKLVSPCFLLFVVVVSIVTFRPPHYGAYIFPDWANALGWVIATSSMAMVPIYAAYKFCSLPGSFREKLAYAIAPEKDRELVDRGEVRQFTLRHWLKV

Biological target: WT hDAT (Homo sapiens, UniProt Q01959)
Experiment: inhibition of [3H]DA uptake in intact HEK-hDAT cells
Type: cell-based
Settings: 5 min

SMILES: C[C@@H](N)Cc1ccccc1 [(l)-amphetamine, reference compound]
- Uptake Kapp, WT: 664.6 ± 60.4 nM
